In ChEMBL document CHEMBL2203175, “Discovery and optimization of sulfonyl acrylonitriles as selective, covalent inhibitors of protein phosphatase methylesterase-1” (J Med Chem, 2011):
Changes are numbered by the printed parent chain.

Tests used:
[1] = molecular target: T1, Protein phosphatase methylesterase 1 (Mus musculus, UniProt Q8BVQ5); assay: Inhibition of PME1 binding to FP-rhodamine in mouse brain soluble proteome after 45 mins by gel-based competitive activity-based protein profiling assay
T1 sequence (Q8BVQ5 whole entry): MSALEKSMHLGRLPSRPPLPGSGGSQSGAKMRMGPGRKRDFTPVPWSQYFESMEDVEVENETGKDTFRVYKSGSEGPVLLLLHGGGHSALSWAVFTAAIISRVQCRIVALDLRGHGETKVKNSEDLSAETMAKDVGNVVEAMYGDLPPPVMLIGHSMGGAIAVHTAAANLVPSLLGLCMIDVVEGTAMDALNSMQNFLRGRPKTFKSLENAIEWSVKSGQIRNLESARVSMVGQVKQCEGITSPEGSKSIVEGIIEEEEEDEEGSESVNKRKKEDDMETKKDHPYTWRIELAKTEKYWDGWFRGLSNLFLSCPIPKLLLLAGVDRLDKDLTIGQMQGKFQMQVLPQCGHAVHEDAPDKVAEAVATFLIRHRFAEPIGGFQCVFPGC

[2] = molecular target: T2, Protein phosphatase methylesterase 1 (Homo sapiens, UniProt Q9Y570); assay: Inhibition of PME1 binding to FP-rhodamine in HEK293T cells after 1 hr by fluorescence polarization activity-based protein profiling assay; format: cell-based, HEK-293T
T2 sequence (Q9Y570 whole entry): T1 sequence (Q8BVQ5 whole entry) with T42S, G114S, S123P, V150I, A167S, A168S, V268I, N269S

[3] = molecular target: T2, Protein phosphatase methylesterase 1; assay: Inhibition of PME1 binding to FP-rhodamine in human HEK293T cells after 45 mins by fluorescence polarization activity-based protein profiling assay; format: cell-based, HEK-293T

IC50 [1] [µM] | IC50 [2] [µM] | IC50 [3] [µM] | SMILES
4.8 | – | – | N#C/C(=C\c1cccn1S(=O)(=O)c1ccccc1)S(=O)(=O)c1ccc(F)cc1
3 | – | – | CS(=O)(=O)/C(C#N)=C/c1cccn1S(=O)(=O)c1ccc(Cl)cc1
0.6 | 3.5 | 0.6 | N#C/C(=C\c1cccn1S(=O)(=O)c1cccc([N+](=O)[O-])c1)S(=O)(=O)c1ccc(F)cc1
